The structures appear in SMILES notation. Only a part is listed here, and it is no random draw. Calls of active or inactive are those of the source.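 How the source made its calls: active means potentiation over 3 SD above the plate norm (cut at about 30% in these data); inactive means the rest.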

By UniProt entry, the sequences of proteins in these tests, tags left out.
UniProt P14416, whole entry, looked up: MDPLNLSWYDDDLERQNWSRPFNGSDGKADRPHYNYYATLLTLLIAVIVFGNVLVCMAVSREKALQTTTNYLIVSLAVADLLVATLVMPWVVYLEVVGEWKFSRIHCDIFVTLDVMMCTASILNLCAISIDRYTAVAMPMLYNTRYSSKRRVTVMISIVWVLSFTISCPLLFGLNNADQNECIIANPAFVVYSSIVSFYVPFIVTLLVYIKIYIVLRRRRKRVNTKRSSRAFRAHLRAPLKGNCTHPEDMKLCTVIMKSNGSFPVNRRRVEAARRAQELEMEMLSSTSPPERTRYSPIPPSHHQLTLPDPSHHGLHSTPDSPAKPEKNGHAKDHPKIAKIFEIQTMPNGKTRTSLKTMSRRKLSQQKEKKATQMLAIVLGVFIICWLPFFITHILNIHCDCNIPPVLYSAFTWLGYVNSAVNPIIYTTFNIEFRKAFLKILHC

The values below come from PubChem BioAssay AID485347 (National Center for Advancing Translational Sciences (NCATS), 2010).

This test concerns the target D(2) dopamine receptor (Homo sapiens) (UniProt P14416). The test can be described thus: HTS Assay for Positive Allosteric Modulators of the Human D2 Dopamine Receptor: Primary Screen for Potentiators. Further: 0% is about no effect. As to conditions: HEK293 T-REx D2, calcium flux, EC20 dopamine potentiation; at 10 µM; active compounds read high. In outline:
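Calcium flux readout, no-wash dye, 1 read/s. Inducible HEK293 Trex D2 line, overnight 30 C. Compound alone 180 s (agonist flags), then EC20 dopamine, another 180 s to score potentiation.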
`CCCOP(=S)(Nc1nc(N)cc(=O)[nH]1)OCCC`: the potentiation was inactive: 10.8%.

For `O=[As](O)(c1cccc(O)c1)c1cccc(O)c1`, the potentiation is inactive: -10.3%. Regarding `Cc1cccc(OCC(=O)OC2CN3CCC2CC3)c1` (stereo not drawn), the potentiation was inactive: 4.3%.

As to `O=C(OC1CN2CCC1CC2)c1ccc(Cl)cc1` (stereo not drawn), the potentiation is inactive: 0.726%. As for `COc1cc(C(=O)NCC2(N3CCOCC3)CCCCC2)cc(Cl)c1OC(C)C`, the potentiation is inactive: -16.5%. On to `O=[As](O)(O)c1cccnc1`, for which the potentiation is inactive: 5.53%.

On to `CS(=O)(=O)c1ccc(Cl)c(NC(=O)COC(=O)C(O)(c2ccccc2)c2ccccc2)c1`, for which the potentiation is inactive: -11%. As for `COc1ccc(N/C(=N/P(=O)(N2CCOCC2)N2CCOCC2)N2CCOCC2)cc1`, the potentiation was inactive: -9.08%. To `COc1ccc2nc(NP(=O)(c3ccccc3)c3ccccc3)sc2c1` belongs inactive: 9.27%; to `COc1cc(I)ccc1[As](=O)(O)O`, inactive: 2.48%; to `Cc1c2c(nc3ccccc13)SC(C(Cl)Cl)C2` (stereo not drawn), inactive: -21.8%. Consider `O=C(OC1CN2CCC1CC2)C12CC3CC(CC(C3)C1)C2` (stereo not drawn), for which the potentiation was inactive: -0.715%. To `Cc1cc(=O)[nH]c(N[N+](=O)[O-])n1` belongs inactive: -6.42%. To `CCN(CC)C(=S)SC(NC=O)C(Cl)(Cl)Cl` (stereo not drawn) belongs inactive: -9.82%; to `CC(C)NC(=O)NP(=O)(Oc1ccccc1)Oc1ccccc1`, inactive: -4.37%. With `O=[N+]([O-])c1cc([N+](=O)[O-])c(-c2ccn[nH]2)s1`, the potentiation is inactive: 10.2%.

With `CC(C)c1ccc(OP(=O)(Nc2ccccn2)Oc2ccccc2F)cc1` (stereo not drawn), the potentiation was inactive: -0.372%. For `Cc1ccc(OP(=O)(Nc2ccc([N+](=O)[O-])cn2)Oc2ccc(C)cc2)cc1` the value was inactive: 11.2%. On to `Cc1ccc2nc3c(c(C)c2c1)CC(C(Cl)Cl)S3` (stereo not drawn), for which the potentiation is inactive: -2.5%.

Regarding `O=[As](O)(c1ccc(O)cc1)c1ccccc1O`, the potentiation was inactive: 2.32%.

As for `C[As](=O)(O)c1cccc(C(=O)O)c1`, the potentiation was inactive: 8.38%. Consider `O=P(Nc1ccccn1)(c1cccc2ccccc12)c1cccc2ccccc12`, for which the potentiation was inactive: 2.06%. To `O=[N+]([O-])c1ccc(Nc2ccc(Oc3ccc([N+](=O)[O-])cc3[N+](=O)[O-])cc2)c([N+](=O)[O-])c1` belongs inactive: -5.53%. For `CCOC(=O)Nc1cccc([As](=O)(O)O)c1` the value was inactive: 8.07%. Consider `CCCCOc1ccc(C(=O)NCC2(N3CCCCC3)CCCCC2)cc1OC`, for which the potentiation was inactive: -11.9%.

For the compound `Cc1cc(SC(NC(=O)c2ccccc2)C(Cl)(Cl)Cl)nc(C(C)C)n1` (stereo not drawn), the potentiation was inactive: -4.35%.

In the case of `CCOC(=O)Nc1ccc([As](=O)(O)O)c(O)c1`, the potentiation is inactive: -4.04%. In the case of `CCC(C)N(CC(C)C)C(=S)SC(NC(C)=O)C(Cl)(Cl)Cl` (stereo not drawn), the potentiation is inactive: 12.7%. For `O=C(OC1CN2CCC1CC2)c1cccc([N+](=O)[O-])c1` (stereo not drawn) the value was inactive: 3.37%; for `CCOC(=O)c1ccc(NC(=O)C(C)(CCl)SC)cc1` (stereo not drawn), inactive: 7.97%. For `O=C(COc1ccccc1)OC1CN2CCC1CC2` (stereo not drawn) the value was inactive: -6.21%; for `O=C(Nc1ccncc1[N+](=O)[O-])c1ccc([N+](=O)[O-])cc1[N+](=O)[O-]`, inactive: 8.35%; for `COP1(=S)c2c(C)nn(CCC#N)c2N=C(c2ccc(F)cc2)N1C` (stereo not drawn), inactive: 7.97%.
